The results in this text go back to paper PMC9531438, “Preclinical development of carrier-free prodrug nanoparticles for enhanced antitumor therapeutic potential with less toxicity” (Journal of Nanobiotechnology, 2022).

This series can be described thus: Pharmacokinetics after intravenous injection. The format is in vivo. Particulars: mice, i.v., 4 mg/kg based on DOX contents; blood, HPLC with fluorescence detector; WinNonlin. On the procedure: The 6-week male BALB/c and BALB/c nu/nu mice were purchased from NaraBio (Gyeonggi-do, Republic of Korea). Mice were bred under pathogen-free conditions in the Korea Institute of Science and Technology (KIST). All experiments with animals were performed in compliance with the relevant laws and institutional guidelines of Institutional Animal Care and Use Committee (IACUC; approved number of 2020-123) in Korea Institute of Science and Technology (KIST). […] After treatment, blood samples were collected from mice by cardiac puncture after deep anesthesia at pre-determined times, followed by analysis with HPLC with fluorescence detector. The PK parameters including area under the curves (AUC), clearance (CL), volume of distribution (Vd) and half-life (t1/2) were calculated using a WinNonlin software. […] The fluorescence intensities in the tumor regions were quantified using a Living Image software (PerkinElmer, Waltham, MA, USA). The ex vivo NIRF imaging of collected major organs after 9 h of injection was also performed using IVIS Lumina Series III system. […] For this analysis, each tissue was cut into 8-μm sections using rotary microtome and analyzed via confocal laser scanning microscope (CLSM) equipped with 405 diode (405 nm) and HeNe-Red (633 nm) lasers.

Turning to `COc1cccc2c1C(=O)c1c(O)c3c(c(O)c1C2=O)C[C@@](O)(C(=O)CO)C[C@@H]3O[C@H]1C[C@H](N)[C@H](O)[C@H](C)O1` [DOX, doxorubicin], the AUCinf came out at 22910 ± 5460 ng·h/mL.
